Experimental data as given in patent US11555013B2, “Potent and selective inhibitors of monoamine transporters; method of making; and use thereof” (priority 2013, dated 2023).

Target: human SERT wild type (Homo sapiens (Human), UniProt P31645)
Assay: cell-based
Details: COS-7, read-out: hSERT WT Ki [S.E. interval] (nM)

In the case of `CNC(=O)CSC(c1ccccc1)c1ccccc1` [Compound 2g, 2-(Benzhydrylthio)-N-methylacetamide], the inhibition at 100 µM was < 50%.
